Tested on: MCF7 human breast cancer cell line
Experiment: Cytotoxic activity test, MTT method, MCF7 cells
Assay type: cell-based
Settings: preliminary in vitro test
Description: To obtain preliminary information of the cytotoxic activity of compounds 1–6, we assessed their toxicity toward the MCF7 human breast cancer cell line. […] To further understand the structure–activity relationship, we speculated that the loss of toxicity for compounds 1–4 in MCF7 cells could be potentially attributed to the derivatization of the NH2 group at C-34, clearly signifying its importance in biological activity.
The cytotoxic activity of compounds 1–6 was in vitro evaluated using the human breast cancer cell line MCF7 (purchased from the Jiangsu Provincial Center for Disease Prevention and Control) according to the previously reported MTT method. Dimethyl sulfoxide (DMSO) was used to dissolve the tested compounds.

For neoantimycin E [Compound 6], the “cytotoxic activity (in words)” value was “weak cytotoxic activity”.
